## Apparent affinities of Ab-91 variants for a coronavirus HR2 peptide

Binding partner: SARS-CoV-2 spike HR2 peptide, sequence PDVDLGDISGINAS.

Parent: Ab-91, a human scFv built as VL, three GGGGS repeats, VH. Only the CDRs of the heavy chain vary.
VL: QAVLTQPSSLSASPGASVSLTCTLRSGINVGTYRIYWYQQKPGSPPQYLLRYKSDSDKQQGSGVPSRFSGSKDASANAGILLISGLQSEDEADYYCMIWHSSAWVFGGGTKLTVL
VH: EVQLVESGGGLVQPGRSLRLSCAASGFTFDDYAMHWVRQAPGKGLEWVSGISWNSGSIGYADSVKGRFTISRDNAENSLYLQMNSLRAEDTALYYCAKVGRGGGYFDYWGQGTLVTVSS

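Variants in AAYL51 differ from the parent at up to three CDR positions; double and triple changes were sampled at random. AlphaSeq pools MATa yeast showing the antibodies with MATalpha yeast showing the peptide. Pairs that bind mate more often; barcode pairs of the diploids are counted by sequencing. A regression on co-assayed BCL2-family reference pairs converts the normalised counts of each replicate to an apparent Kd. There are three technical replicates.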

The parent's heavy chain CDRs are GFTFDDYAMH, GISWNSGSIGYADSVK, VGRGGGYFDY; each variant's own CDRs replace them letter for letter. All variants listed here change D107 of the VH, counted from its first residue. Each Kd is an estimate from the mating assay, the geometric mean of the replicates in which the pair was seen; lower is stronger. A pair that was not seen in any replicate is written "not detected"; this usually means weak binding, but a binder can also be missed. Entries are sorted by rising average, undetected variants last. Three control strains display no target. For library AAYL51, 21% of the pairings with them gave a signal, with a median of 34 µM and one signal in twenty below 1.8 µM, so weak values seen in few replicates may be background. For each scFv, signals with the empty controls are counted beside the result. In this assay the parent's reference entry averaged 72 nM; its copy inside this library read 7.5 nM.

| CDR-H1 | CDR-H2 | CDR-H3 | Kd (apparent) | seen in | empty controls |
|---|---|---|---|---|---|
| GFTFDDYAMH | GISFNSGSIGYADSVK | VGRGGGYFLY | 3.2 nM | 3 of 3 | 0 of 9 |
| GFTFDDYAMH | GISWNSGSIGYADYVK | VGRGGGYLKY | 11 nM | 3 of 3 | 4 of 9 |
| GFTFDDYAMH | GISWNSISIGYADSVK | VGRGGGYFQY | 13 nM | 3 of 3 | 2 of 9 |
| GFTFDDYAMH | GISWNSGSIGYAQSVK | VGRGGGYFKY | 51 nM | 3 of 3 | 1 of 9 |
| GFTFDDYAMH | GISCNSGSIGYADSVK | VGRGGGYFGY | 500 nM | 3 of 3 | 2 of 9 |
| GFTFDDYAMH | GISWVSGSIGYADSVK | VGFGGGYFNY | 3.4 µM | 1 of 3 | 2 of 9 |
| GFTFDDYPMH | GISWNSGSIGYADAVK | VGRGGGYFSY | 3.5 µM | 1 of 3 | 1 of 9 |
| GFTCDDYAMH | GISWNSGSIGYADSVK | VGRGGGYFAY | 6.2 µM | 1 of 3 | 0 of 9 |
| GFTFLMYAMH | GISWNSGSIGYADSVK | VGRGGGYFGY | 11 µM | 3 of 3 | 2 of 9 |
| GFTFDDYAMV | GISWNSMSIGYADSVK | VGRGGGYFWY | 13 µM | 1 of 3 | 1 of 9 |
| GFTFDDYAMH | GISANSKSIGYADSVK | VGRGGGYFPY | 13 µM | 1 of 3 | 6 of 9 |
| GFTFDDYAMH | GISWNSGSIGYADSVC | VGRGGGYFYF | 15 µM | 1 of 3 | 3 of 9 |
| GFTFDDYYMH | GISWNSGSIGYADSVK | VGRMGGYFSY | 15 µM | 2 of 3 | 1 of 9 |
| GFTFDDYAMH | GISWNSGSIGYADSVK | VGRGGNSFCY | 17 µM | 1 of 3 | 8 of 9 |
| GFTMDDYAMH | GISWNSGSNGYADSVK | VGRGGGYFHY | 20 µM | 1 of 3 | 4 of 9 |
| GFTFDDYAMH | GISWNVGSIGYADEVK | VGRGGGYFCY | 21 µM | 1 of 3 | 0 of 9 |
| GFTFDDYGMF | GISWNSGSIGYADSVK | VGRGGGYFCY | 25 µM | 2 of 3 | 4 of 9 |
| GFTFDDLAMH | PISWNSGSIGYADSVK | VGRGGGYFQY | 28 µM | 2 of 3 | 3 of 9 |
| GFTFDDYAMH | GISWNSGSIGYADSVF | VGRGGGYFKY | 29 µM | 2 of 3 | 2 of 9 |
| GFTFDDYAMH | GISWNSGSIGYADSVK | VGRGGGYFQY | 34 µM | 2 of 3 | 2 of 9 |
| TFTFDHYAMH | GISWNSGSIGYADSVK | VGRGGGYFKY | 43 µM | 2 of 3 | 9 of 9 |
| GFTFDDYAMH | CISWNSGSIGYADSVL | VGRGGGYFHY | 44 µM | 2 of 3 | 0 of 9 |
| GFTFDDYAMW | GISWNSGSIGYADSMK | VGRGGGYFTY | 52 µM | 1 of 3 | 0 of 9 |
| GFTFDDYAMH | AISWNSGSIGYADSVK | VGRGGGYFIY | 56 µM | 1 of 3 | 1 of 9 |
| GATFDDYAMH | GISWNSGSIGYADGVK | VGRGGGYFLY | 57 µM | 2 of 3 | 4 of 9 |
| PFTFDDYAMH | GISWNSGSIGYADSVK | VGRGGGYFTY | 63 µM | 3 of 3 | 4 of 9 |
| GFTFDDYAMH | KISWNSGSIGYATSVK | VGRGGGYFFY | 72 µM | 2 of 3 | 4 of 9 |
| GFTFDDYKTH | GISWNSGSIGYADSVK | VGRGGGYFKY | 110 µM | 3 of 3 | 2 of 9 |
| GFTFDHYAMH | GISWNKGSIGYADSVK | VGRGGGYFQY | 110 µM | 1 of 3 | 2 of 9 |
| GFTFDDYAMH | GISWNSGSIGYASSVK | VGRGHGYFWY | 130 µM | 2 of 3 | 5 of 9 |
| GFTFDDYAMH | GITWNSGSVGYADSVK | VGRGGGYFFY | 140 µM | 2 of 3 | 7 of 9 |
| GFTFDDYAMH | GASWNSGSIGYADSVK | VGRGGGYFLY | 150 µM | 1 of 3 | 3 of 9 |
| GFTFDDYAMH | GQSWNSGSIGYADSVK | VGRGGAYFGY | 160 µM | 1 of 3 | 1 of 9 |
| GFTFDDYAMH | GISWNSGSIGYADSVK | VSRSGGYFRY | 190 µM | 3 of 3 | 8 of 9 |
| GFTFDDWAMH | GISWNSGSIDYADSVK | VGRGGGYFTY | 630 µM | 2 of 3 | 5 of 9 |
| GFTFDDYAMH | GISWNSGSNGYADSVK | VGRKGGYFQY | not detected | 0 of 3 | 1 of 9 |
| GFTFDDYAMP | GISWNSGSIGYAGSVK | VGRGGGYFCY | not detected | 0 of 3 | 0 of 9 |
| GFTFDDYAMH | GISWNSGGIGHADSVK | VGRGGGYFGY | not detected | 0 of 3 | 4 of 9 |
| GFTFDDYAMH | GISWNSGSIGYADSVK | MGRGGGYFIY | not detected | 0 of 3 | 0 of 9 |
| GFTFDDYAMH | GISWNSGSIGYADSVC | VGRGGGYFKY | not detected | 0 of 3 | 0 of 9 |
| GFTFDDYAMH | GISWNSGSIGYADSVK | VGRWGGYFET | not detected | 0 of 3 | 0 of 9 |
| GFTFDDYAMH | GISWNSGSIQYADSVK | VGRGRGYFAY | not detected | 0 of 3 | 0 of 9 |
| GFTFDDYAMH | GISWNSGQIGYADSVW | VGRGGGYFEY | not detected | 0 of 3 | 3 of 9 |
| GFTFDDYAMH | GTSWNSGSIGYADSVK | VGRGGQYFKY | not detected | 0 of 3 | 0 of 9 |
| GFTFDDYAMH | GISWNSGSIGCADSVK | VNRGGGYFQY | not detected | 0 of 3 | 1 of 9 |
| GFTFDDYAMH | GISWNSGSIGYADSVK | VGRRAGYFRY | not detected | 0 of 3 | 0 of 9 |
| GFTFDDYAMH | GIGWNSGSIGYADSVK | VGRGGHYFPY | not detected | 0 of 3 | 3 of 9 |
| GFTFDDYAMH | GISCNSGSIGYADSVK | VGRGGGYFYW | not detected | 0 of 3 | 0 of 9 |
| GFTFDDYAVH | GISWNSGPIGYADSVK | VGRGGGYFSY | not detected | 0 of 3 | 1 of 9 |
| GFTFDDYAMH | GISWNSGSIGYAFDVK | VGRGGGYFTY | not detected | 0 of 3 | 0 of 9 |
| GFTFDGYAMH | MISWNSGSIGYADSVK | VGRGGGYFFY | not detected | 0 of 3 | 0 of 9 |
| GFTFDDTAMH | RISWNSGSIGYADSVK | VGRGGGYFKY | not detected | 0 of 3 | 2 of 9 |
| GFTFDDYAMH | GISWNSGSIGYADSVK | VGRGGGYFMY | not detected | 0 of 3 | 0 of 9 |
| GFTFDDYAMH | GIGWNSGSIGYADSVK | VGRGGGNFRY | not detected | 0 of 3 | 1 of 9 |
| GFTFDDYAMH | GGSWNSGSIGYADSVK | VGRGGGYFFY | not detected | 0 of 3 | 0 of 9 |
| GFTFNDYAMH | GISWNSGSIGYADSVK | VGRGGGYFVY | not detected | 0 of 3 | 2 of 9 |
| GFTFDDGAMH | GISWNSGSIGYADSVK | VGRGGGYFYY | not detected | 0 of 3 | 6 of 9 |
| GFTFDDYAMH | GISWNSGSIDYADSVK | VGRGYGYFHY | not detected | 0 of 3 | 0 of 9 |
| GFTFVDYAMH | GISWNSGSIGYADSVK | VGRGGGYYRY | not detected | 0 of 3 | 2 of 9 |
| GFTFDDYAMH | GESWDSGSIGYADSVK | VGRGGGYFSY | not detected | 0 of 3 | 1 of 9 |
| GFTFDDYAMH | MISWNSGSTGYADSVK | VGRGGGYFTY | not detected | 0 of 3 | 2 of 9 |
| GWTFDDYAMH | GISWNSGSIGYADSVK | VGSGGGYFSY | not detected | 0 of 3 | 1 of 9 |
| GFTFDMYAMH | GISWNSGSIGYADSVK | VGRGGNYFWY | not detected | 0 of 3 | 0 of 9 |

Again, the first 7 entries without any signal:

CDR-H1,CDR-H2,CDR-H3,Kd (apparent),seen in,empty controls
GFTFDDYAMH,GISWNSGSNGYADSVK,VGRKGGYFQY,not detected,0 of 3,1 of 9
GFTFDDYAMP,GISWNSGSIGYAGSVK,VGRGGGYFCY,not detected,0 of 3,0 of 9
GFTFDDYAMH,GISWNSGGIGHADSVK,VGRGGGYFGY,not detected,0 of 3,4 of 9
GFTFDDYAMH,GISWNSGSIGYADSVK,MGRGGGYFIY,not detected,0 of 3,0 of 9
GFTFDDYAMH,GISWNSGSIGYADSVC,VGRGGGYFKY,not detected,0 of 3,0 of 9
GFTFDDYAMH,GISWNSGSIGYADSVK,VGRWGGYFET,not detected,0 of 3,0 of 9
GFTFDDYAMH,GISWNSGSIQYADSVK,VGRGRGYFAY,not detected,0 of 3,0 of 9

Source: Engelhart et al. 2022 (doi:10.1038/s41597-022-01779-4), MIT Lincoln Laboratory and A-Alpha Bio; data file from the FLAb repository.